Calls of active or inactive are those of the source.
What was measured:
Mus musculus [1] = assay: Anti-resorptive activity in ovariectomized ddY mouse assessed as increase in proximal bone mass density at 10 mg/kg/day, po after 4 weeks of post ovariectomy by X-ray absorptiometry analysis
Mus musculus [2] = assay: Anti-resorptive activity in ovariectomized ddY mouse assessed as increase in total bone mass density at 10 mg/kg/day, po after 4 weeks of post ovariectomy by X-ray absorptiometry analysis
BMDM [3] = assay: Antiresorptive activity in mouse BMDM cells assessed as inhibition of RANKL-induced osteoclastogenesis by measuring TRAP-positive cells
Osteoclast = assay: Antiresorptive activity in osteoclasts derived from mouse BMM cells assessed as inhibition of MCSF/RANKL-induced bone resorption
BMDM [4] = assay: Antiresorptive activity in mouse BMDM cells assessed as inhibition of MCSF-induced osteoclastogenesis by measuring TRAP-positive cells
RAW264.7 = assay: Inhibition of RANKL-induced NF-kappaB activation in mouse RAW264.7 cells at 10 uM by luciferase assay
Mus musculus [5] = assay: Anti-resorptive activity in ovariectomized ddY mouse assessed as restoration of lost trabecular bone at 10 mg/kg/day, po after 4 weeks of post ovariectomy by histomorphometric analysis relative to untreated control; settings: Trabecula
BMDM [6] = assay: Inhibition of RANKL-induced ERK activation in mouse BMDM cells by Western blot analysis
BMDM [7] = assay: Inhibition of RANKL-induced NF-kappaB translocation in mouse BMDM cells by Western blot analysis
Mus musculus [8] = assay: Anti-resorptive activity in ovariectomized ddY mouse assessed as increase in median bone mass density at 10 mg/kg/day, po after 4 weeks of post ovariectomy by X-ray absorptiometry analysis

CC(C)N(/C(Cc1ccc([N+](=O)[O-])cc1)=N/P(=O)(Oc1ccccc1)Oc1ccccc1)C(C)C
active: Activity (Mus musculus [1]) | Activity (Mus musculus [2]) | inhibition (BMDM [3]) Dose-dependent effect | inhibition (Osteoclast) Dose-dependent effect | inhibition (BMDM [4]) Dose-dependent effect | inhibition (RAW264.7) Dose-dependent effect | Activity (Mus musculus [5]) | inhibition (BMDM [6]) | inhibition (BMDM [7]) Dose-dependent effect | Activity (Mus musculus [8])
